“And” between values parts separate entries of the source, which are not always exact repeats. Equal entries are not always repeated. Where two headings read alike, the source gives them in different places.
Key:
[1] = molecular target: SSTR4 (Homo sapiens, UniProt P31391); experiment: Competitive binding assay with [125I]Tyr11-Somatostatin 14, SSTR4
[2] = molecular target: T1, SSTR2 (Homo sapiens, UniProt P30874); experiment: Competitive binding assay with [125I]Tyr11-Somatostatin 14, SSTR2; conditions: for Ki: read-out: Ki value against SSTR2, Example 69-2, Table 3B; for Ki value against SSTR2, folds that of SRIF14: Example 69-2
[3] = molecular target: SSTR3 (Homo sapiens, UniProt P32745); experiment: Competitive binding assay with [125I]Tyr11-Somatostatin 14, SSTR3; conditions: for Ki: read-out: Ki value against SSTR3, Example 69-2, Table 3B
[4] = Pharmacokinetics test with rats (intravenous and subcutaneous administration); conditions: rats; for AUC increase compared to the non-glycosylated form SRIF28 / t1/2 extension compared to the non-glycosylated form SRIF28 / AUC increase compared to the non-glycosylated form SRIF14 / t1/2 extension compared to the non-glycosylated form SRIF14: administered intravenously; for MRT / T1/2: Tables 5B-5F (unit not given; Table 5A: min); for bioavailability (BA): subcutaneous vs intravenous AUC; for AUC, intravenous administration: 40 nmol/kg
[5] = molecular target: T2, SSTR5 (Homo sapiens, UniProt P35346); experiment: Agonist activity evaluation (cAMP production suppression), SSTR5 receptor expression cells; type: cell-based; set-up: host or cells: CHO-K1 cells
[6] = molecular target: T2, SSTR5; experiment: Competitive binding assay with [125I]Tyr11-Somatostatin 14, SSTR5; conditions: Example 69-2
[7] = molecular target: T2, SSTR5
[8] = molecular target: T1, SSTR2
[9] = molecular target: SSTR1 (Homo sapiens, UniProt P30872); experiment: Competitive binding assay with [125I]Tyr11-Somatostatin 14, SSTR1; conditions: Example 69-2
[10] = read-out: Ki value against SSTR4; Example 69-2, Table 3B
[11] = intravenous administration, Table 5A
[12] = subcutaneous administration, Table 5A

Amino acid sequences for entries named in this document (tags omitted). A change or cut given only in a name is not applied to a line headed by its entry.
UniProt P31391: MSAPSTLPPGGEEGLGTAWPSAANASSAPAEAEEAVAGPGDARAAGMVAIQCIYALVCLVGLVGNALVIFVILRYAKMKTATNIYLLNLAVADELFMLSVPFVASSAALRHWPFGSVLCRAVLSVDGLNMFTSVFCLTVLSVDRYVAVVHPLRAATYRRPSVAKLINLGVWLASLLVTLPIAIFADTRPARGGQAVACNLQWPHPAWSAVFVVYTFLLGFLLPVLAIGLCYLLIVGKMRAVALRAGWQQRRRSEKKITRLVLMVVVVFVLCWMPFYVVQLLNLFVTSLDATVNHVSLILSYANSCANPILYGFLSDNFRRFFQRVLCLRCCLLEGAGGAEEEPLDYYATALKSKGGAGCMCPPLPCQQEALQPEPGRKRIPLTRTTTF
UniProt P30874: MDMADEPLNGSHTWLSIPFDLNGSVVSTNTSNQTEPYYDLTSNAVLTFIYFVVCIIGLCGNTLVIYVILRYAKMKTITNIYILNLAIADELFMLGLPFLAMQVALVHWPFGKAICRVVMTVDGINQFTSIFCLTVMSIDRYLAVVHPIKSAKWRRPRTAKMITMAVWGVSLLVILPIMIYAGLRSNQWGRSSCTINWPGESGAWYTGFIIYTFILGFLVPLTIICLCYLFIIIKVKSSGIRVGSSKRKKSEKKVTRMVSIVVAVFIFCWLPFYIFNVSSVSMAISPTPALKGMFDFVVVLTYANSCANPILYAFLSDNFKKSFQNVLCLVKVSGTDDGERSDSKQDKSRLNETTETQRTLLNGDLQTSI
UniProt P32745: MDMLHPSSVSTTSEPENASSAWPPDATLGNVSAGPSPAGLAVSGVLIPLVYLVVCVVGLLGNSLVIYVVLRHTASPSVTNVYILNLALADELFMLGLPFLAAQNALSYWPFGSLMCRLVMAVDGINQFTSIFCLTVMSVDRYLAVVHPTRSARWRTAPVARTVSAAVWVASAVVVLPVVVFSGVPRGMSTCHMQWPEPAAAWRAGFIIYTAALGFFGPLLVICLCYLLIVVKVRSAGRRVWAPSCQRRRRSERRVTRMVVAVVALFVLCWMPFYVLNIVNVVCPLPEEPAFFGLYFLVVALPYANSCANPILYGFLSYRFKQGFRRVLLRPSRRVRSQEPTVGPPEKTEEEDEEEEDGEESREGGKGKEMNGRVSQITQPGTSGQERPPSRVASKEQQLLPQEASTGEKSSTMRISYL
UniProt P35346: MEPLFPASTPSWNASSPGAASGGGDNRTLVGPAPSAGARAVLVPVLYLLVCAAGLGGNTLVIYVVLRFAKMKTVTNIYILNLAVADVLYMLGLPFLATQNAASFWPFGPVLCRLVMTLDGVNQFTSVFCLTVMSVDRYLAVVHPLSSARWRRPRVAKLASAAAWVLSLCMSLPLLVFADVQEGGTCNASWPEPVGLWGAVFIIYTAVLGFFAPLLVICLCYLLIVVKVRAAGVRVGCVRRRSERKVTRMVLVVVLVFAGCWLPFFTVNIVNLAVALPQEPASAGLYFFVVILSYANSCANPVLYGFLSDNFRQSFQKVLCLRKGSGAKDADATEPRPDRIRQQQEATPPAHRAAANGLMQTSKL
UniProt P30872: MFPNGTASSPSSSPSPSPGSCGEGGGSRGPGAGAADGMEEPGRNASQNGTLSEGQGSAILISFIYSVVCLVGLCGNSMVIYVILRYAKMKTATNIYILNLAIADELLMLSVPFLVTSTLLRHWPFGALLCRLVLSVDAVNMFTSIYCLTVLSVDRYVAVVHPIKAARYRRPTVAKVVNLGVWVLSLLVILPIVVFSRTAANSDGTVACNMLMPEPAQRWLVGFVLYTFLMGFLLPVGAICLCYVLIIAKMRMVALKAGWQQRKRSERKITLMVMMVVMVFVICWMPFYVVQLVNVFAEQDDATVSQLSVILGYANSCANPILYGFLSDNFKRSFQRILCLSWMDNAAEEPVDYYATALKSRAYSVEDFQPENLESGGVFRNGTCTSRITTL

Substance: S1C(disialo(Bn))-SRIF28 [Example 61]
- Ki [1, 10]: 1.39 to 172 nM
- Ki [2]: 0.0536 to 6.58 nM
- Ki [3]: 0.16 to 13.8 nM
- AUC increase compared to the non-glycosylated form SRIF28 [4]: 7-12 folds
- t1/2 extension compared to the non-glycosylated form SRIF28 [4]: 11-14 folds

Substance: C(disialo)-PEG linker-SRIF14 [Example 45]
- Ki [1, 10]: 1.39 to 172 nM
- IC50 ([5]; read-out: IC50 of cAMP production suppressing action (agonist activity), SSTR5; CHO-K1 receptor expression cells, 10 μM forskolin): 0.18 nM
- Ki [2]: 0.0536 to 6.58 nM
- Ki [3]: 0.16 to 13.8 nM
- AUC increase compared to the non-glycosylated form SRIF14 [4]: 14-30 folds
- t1/2 extension compared to the non-glycosylated form SRIF14 [4]: 22-33 folds

Substance: T26C(disialo)-SRIF28 [Example 12]
- Ki value against SSTR2, folds that of SRIF14 [2]: 280-1600 folds
- Ki value against SSTR5, folds that of SRIF14 [6]: 280-1600 folds

Substance: S1-2C(disialo(amide))-SRIF28 [Example 63]
- Ki [1, 10]: 1.39 to 172 nM
- Ki [2]: 0.0536 to 6.58 nM
- Ki [3]: 0.16 to 13.8 nM
- AUC increase compared to the non-glycosylated form SRIF28 [4]: 6-12 folds
- t1/2 extension compared to the non-glycosylated form SRIF28 [4]: 6-21 folds

Substance: S1C(disialo(amide))-SRIF28 [Example 60]
- Ki [1, 10]: 1.39 to 172 nM
- Ki [2]: 0.0536 to 6.58 nM
- Ki [3]: 0.16 to 13.8 nM
- AUC increase compared to the non-glycosylated form SRIF28 [4]: 7-12 folds
- t1/2 extension compared to the non-glycosylated form SRIF28 [4]: 11-14 folds

Substance: S1C(disialo)-SRIF28 [Example 1]
- Ki [1, 10]: 1.39 to 172 nM
- Ki [2]: 0.0536 to 6.58 nM
- Ki [3]: 0.16 to 13.8 nM
- IC50 ([3]; read-out: SSTR3 IC50, Table 3B, Example 69-2): 1.98 nM
- AUC increase compared to the non-glycosylated form SRIF28 [4]: 8-23 folds and 11 folds
- t1/2 extension compared to the non-glycosylated form SRIF28 [4]: 13-18 folds and 13 folds
- AUC [4, 11]: 4855 ± 1030 nM·min
- C0 [4, 11]: 686 ± 363 nM
- AUC ([4]; intravenous administration, Tables 5B-5F (unit not given; Table 5A: min · nM)): 5190
- MRT ([4]; intravenous administration): 19.1
- T1/2 ([4]; intravenous administration): 17.7
- AUC [4, 12]: 1773 ± 281 nM·min
- Cmax [4, 12]: 28.9 ± 3.23 nM
- MRT ([4]; subcutaneous administration): 49.2
- T1/2 ([4]; subcutaneous administration): 31.2
- Cmax ([4]; subcutaneous administration, Tables 5B-5F (unit not given; Table 5A: nM)): 30.1
- bioavailability (BA) [4]: 37%

Substance: A9C(disialo)-SRIF28 [Example 3]
- IC50 [7]: 0.473 nM
- AUC [4, 11]: 4083 ± 515 nM·min
- C0 [4, 11]: 547 ± 211 nM
- AUC [4, 12]: 2462 ± 64.0 nM·min
- Cmax [4, 12]: 30.2 ± 5.05 nM

Substance: S1C(trisialo)-SRIF28 [Example 57]
- Ki ([1]; Example 69-2, Table 3B; read-out: Ki value against SSTR4): 1.39 to 172 nM
- IC50 ([5]; CHO-K1 receptor expression cells, 10 μM forskolin; read-out: IC50 of cAMP production suppressing action (agonist activity), SSTR5): 0.095 nM
- Ki [2]: 0.0536 to 6.58 nM
- Ki [3]: 0.16 to 13.8 nM

Substance: C(disialo)-K-SRIF14 [Example 42]
- Ki [1, 10]: 1.39 to 172 nM
- Ki [2]: 0.0536 to 6.58 nM
- Ki [3]: 0.16 to 13.8 nM
- AUC increase compared to the non-glycosylated form SRIF14 [4]: 44-55 folds
- t1/2 extension compared to the non-glycosylated form SRIF14 [4]: 33-38 folds

Substance: N5C(disialo)•A9C(disialo)-SRIF28 [Example 23]
- Ki [8]: 0.424 nM
- AUC [4, 11]: 4465 ± 833 nM·min
- C0 [4, 11]: 664 ± 104 nM
- AUC, intravenous administration [4]: 4029 to 4465 nM·min
- AUC [4, 12]: 3450 ± 784 nM·min
- Cmax [4, 12]: 32.5 ± 7.06 nM
- bioavailability (BA) [4]: 77-85%

Substance: S1C(disialo)•R13C(disialo)-SRIF28 [Example 22]
- Ki [8]: 3.33 nM
- AUC [4, 11]: 4029 ± 184 nM·min
- C0 [4, 11]: 822 ± 106 nM
- AUC, intravenous administration [4]: 4029 to 4465 nM·min
- AUC [4, 12]: 3407 ± 436 nM·min
- Cmax [4, 12]: 38.7 ± 8.73 nM
- bioavailability (BA) [4]: 77-85%

Substance: F25C(disialo)-SRIF28 [Example 40]
- Ki value against SSTR1, folds that of SRIF14 [9]: 310-5300 folds
- Ki value against SSTR2, folds that of SRIF14 [2]: 310-5300 folds
- Ki value against SSTR3, folds that of SRIF14 ([3]; Example 69-2): 310-5300 folds
- IC50 ([6]; read-out: SSTR5 IC50, Table 3B): 58 nM
